Results published in patent publication US11376277B2, “Synergistic medicinal compositions for treating dysfunctional D-serine signaling” (CELAGENEX RESEARCH (INDIA) PVT. LTD., priority 2020, dated 2022).

Key:
[1] = test system: D-serine; test: Pharmacokinetics profile of D-serine in rat model, brain tissue sample; settings: rat brain tissue samples; G4 36.17 mg/kg, G5 31.01 mg/kg
Protocol: (§1) To assess and compare the pharmacokinetics profile of D-serine in rat model.
(§2) Six groups were divided into 4 sets of 3 rats each/subset for bleeding and organ (brain) collection—Total 72 rats
Organ (Brain) collection: Rats were sacrificed each time point (3 rats/group/time point) by decapitation at 0, 2, 6 or 10 hr post dose. Brain was removed and cerebellum dissected on ice. Tissue samples were frozen on dry ice and stored at −80° C. until analysis.
(§3) Supernatant was filtered with 0.2 micron amicon syringe filter (Millipore, Hessen, Germany), then directly transferred into auto sampler vials
(§4) An Accela™ ultra-high performance liquid chromatography (UHPLC) system (Thermo Fisher, Waltham, USA), coupled online via heated electrospray ionization source (HESI) with a Q-Exactive-Orbitrap mass spectrometer (Thermo Fisher), was employed for global metabolomics profiling with 1 μL sample injection volume. The metabolites were profiled using a C18 Hypersil Gold column (1.9 μm, 2.1×150 mm, Thermo).
(§5) The temperature of column oven was set at 35° C. and the sample manager was maintained at 4° C. The eluents acetonitrile and water containing 0.1% formic acid were employed in the electrospray ionization-positive (ESI+) mode.
(§6) The area under the plasma concentration time curve (AUC) value was calculated to the last quantifiable sample (AUClast) by using the log-linear trapezoidal rule.

[2] = test system: D-serine; test: Pharmacokinetics profile of D-serine in rat model, blood plasma; settings: G4 36.17 mg/kg, G5 31.01 mg/kg
Protocol: as §1, §2
Plasma was separated using refrigerated centrifuge & stored in −80° C. before analysis. Blood was collected at time point 0, 2, 6 and 10 hrs at least from 3 rats/group/time point.
as §3, §4, §5, §6

With `O=C([O-])c1ccccc1.[Na+]` [Test II, Sodium benzoate] the “AUC values of D-serine” value [1] was “increased” and the “AUC values of D-serine” value [2] was “increased”.
